Source: patent publication US20240360179A1, “STAPLED PEPTIDES AND METHODS THEREOF” (FOG PHARMACEUTICALS, INC., priority 2021, published 2024)

Sequences of proteins named here, by UniProt entry; tags and fusion partners are left off.
UniProt P35222, whole entry: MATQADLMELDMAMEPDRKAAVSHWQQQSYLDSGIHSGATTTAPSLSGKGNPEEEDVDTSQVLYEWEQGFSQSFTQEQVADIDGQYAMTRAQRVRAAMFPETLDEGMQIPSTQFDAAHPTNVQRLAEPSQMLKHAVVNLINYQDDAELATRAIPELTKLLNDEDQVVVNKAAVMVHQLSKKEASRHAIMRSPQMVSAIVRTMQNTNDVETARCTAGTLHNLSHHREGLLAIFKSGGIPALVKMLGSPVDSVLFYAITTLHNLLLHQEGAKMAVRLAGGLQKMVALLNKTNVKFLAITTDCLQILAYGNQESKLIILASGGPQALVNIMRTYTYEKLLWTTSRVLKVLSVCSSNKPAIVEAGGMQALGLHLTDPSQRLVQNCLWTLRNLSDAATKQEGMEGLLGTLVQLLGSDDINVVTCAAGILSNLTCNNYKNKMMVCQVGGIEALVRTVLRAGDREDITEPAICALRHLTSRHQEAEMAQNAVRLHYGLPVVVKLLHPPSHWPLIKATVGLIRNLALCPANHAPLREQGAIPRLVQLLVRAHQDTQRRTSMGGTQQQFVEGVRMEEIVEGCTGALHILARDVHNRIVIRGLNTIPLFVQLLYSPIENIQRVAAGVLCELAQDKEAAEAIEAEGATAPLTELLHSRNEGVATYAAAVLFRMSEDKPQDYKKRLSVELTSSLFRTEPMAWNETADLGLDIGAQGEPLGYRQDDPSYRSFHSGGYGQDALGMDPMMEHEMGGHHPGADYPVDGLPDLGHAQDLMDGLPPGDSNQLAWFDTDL

Assays:
[1] = biological target: beta-catenin/TCF4 interaction (Homo sapiens, UniProt P35222); assay: cell-based; design: host or cells: HEK293; conditions: NanoBRET Abs IC50 (uM)
[2] = biological target: T1, full-length B-Catenin (Uniprot ID P35222) (Homo sapiens, UniProt P35222); assay: biochemical; assay type: binding; conditions: beta-Catenin FP IC50 (nM), competition fluorescence polarization
T1 construct: 10 nM full-length B-Catenin (Uniprot ID P35222)

SMILES | IC50 [1] [µM] | IC50 [2] [nM] | IC50 ([1]; absolute IC50) [µM]
CC(=O)N1CCC[C@]12CC=CCCCC1(CCCC=CCCCOC(=O)N3CC[C@@]4(C3)NC(=O)[C@@H](CCC(=O)NCCCC[C@@H](C(N)=O)NC(=O)[C@H](Cc3csc5ccccc35)NC(=O)[C@H](Cc3ccsc3)NC4=O)NC(=O)[C@H](Cc3ccccc3)NC(=O)[C@H](C)NC(=O)[C@H](C)NC(=O)[C@H](CC(=O)O)NC(=O)[C@H](CC(=O)O)NC1=O)NC(=O)[C@H](CC(C)C)NC(=O)[C@H](CC(=O)O)NC2=O (relative stereo) [I-5, Ac-PL3-Asp-Leu-B5-Asp-Asp-Ala-Ala-Phe-DGlnR*3-PyrS2-3Thi-BztA-Lys*3-NH2] | > 10 | < 50 | 
CC(=O)N1CCC[C@]12CC=CCCCC1(CCCC=CCCCOC(=O)N3CC[C@@]4(C3)NC(=O)[C@H](CCC(=O)NCCCC[C@@H](C(N)=O)NC(=O)[C@H](Cc3csc5ccccc35)NC(=O)[C@H](Cc3ccsc3)NC4=O)NC(=O)[C@H](Cc3ccccc3)NC(=O)[C@H](C)NC(=O)[C@H](C)NC(=O)[C@H](CC(=O)O)NC(=O)[C@H](CC(=O)O)NC1=O)NC(=O)[C@H](CC(C)C)NC(=O)[C@H](CC(=O)O)NC2=O (relative stereo) [I-6, Ac-PL3-Asp-Leu-B5-Asp-Asp-Ala-Ala-Phe-GlnR*3-PyrS2-3Thi-BztA-Lys*3-NH2] | > 10 | < 50 | 
CC(=O)N1CCC[C@]12CC=CCCCC1(CCCC=CCCCOC(=O)N3CC[C@@](C(=O)N[C@@H](Cc4ccsc4)C(=O)N[C@@H](Cc4csc5ccccc45)C(=O)N[C@@H](CCC(N)=O)C(N)=O)(C3)NC(=O)[C@@H]3CCC(=O)NCCCC[C@H](NC(=O)[C@H](CC(=O)O)NC(=O)[C@H](CC(=O)O)NC1=O)C(=O)N[C@@H](C)C(=O)N[C@@H](Cc1ccccc1)C(=O)N3)NC(=O)[C@H](CC(C)C)NC(=O)[C@H](CC(=O)O)NC2=O (relative stereo) [I-7, Ac-PL3-Asp-Leu-B5-Asp-Asp-Lys*3-Ala-Phe-GlnR*3-PyrS2-3Thi-BztA-Gln-NH2] | > 10 | < 50 | 
CC(=O)N1CCC[C@]12CC=CCCCC1(CCCC=CCCCOC(=O)N3CC[C@@](C(=O)N[C@@H](Cc4ccsc4)C(=O)N[C@@H](Cc4csc5ccccc45)C(=O)N[C@@H](CCC(N)=O)C(N)=O)(C3)NC(=O)[C@@H]3CCCCNC(=O)CC[C@H](NC(=O)[C@H](CC(=O)O)NC(=O)[C@H](CC(=O)O)NC1=O)C(=O)N[C@@H](C)C(=O)N[C@@H](Cc1ccccc1)C(=O)N3)NC(=O)[C@H](CC(C)C)NC(=O)[C@H](CC(=O)O)NC2=O (relative stereo) [I-8, Ac-PL3-Asp-Leu-B5-Asp-Asp-GlnR*3-Ala-Phe-Lys*3-PyrS2-3Thi-BztA-Gln-NH2] | > 10 | < 50 | 
CC(=O)N1CCC[C@]12CC=CCCCC1(CCCC=CCCCOC(=O)N3CC[C@@]4(C3)NC(=O)[C@H](CCC(=O)NCCCC[C@@H](C(N)=O)NC(=O)[C@H](Cc3csc5ccccc35)NC(=O)[C@H](Cc3ccsc3)NC4=O)NC(=O)[C@H](Cc3ccccc3)NC(=O)[C@H](C)NC(=O)[C@H](C)NC(=O)[C@H](Cc3cccc(C(=O)O)c3)NC(=O)[C@H](CC(=O)O)NC1=O)NC(=O)[C@H](CC(C)(C)C)NC(=O)[C@H](CC(=O)O)NC2=O (relative stereo) [I-33, Ac-PL3-Asp-Npg-B5-Asp-3COOHF-Ala-Ala-Phe-GlnR*3-PyrS2-3Thi-BztA-Lys*3-NH2] | 3 to 10 | < 50 | 
CC(=O)N1CCC[C@]12CC=CCCCC1(CCCC=CCCCOC(=O)N3CC[C@@]4(C3)NC(=O)[C@H](CCCCNC(=O)C[C@@H](C(N)=O)NC(=O)[C@H](Cc3csc5ccccc35)NC(=O)[C@H](Cc3ccsc3)NC4=O)NC(=O)[C@H](Cc3ccccc3)NC(=O)[C@H](C)NC(=O)[C@H](C)NC(=O)[C@H](Cc3cccc(C(=O)O)c3)NC(=O)[C@H](CC(=O)O)NC1=O)NC(=O)[C@H](CC(C)(C)C)NC(=O)[C@H](CC(=O)O)NC2=O (relative stereo) [I-34, Ac-PL3-Asp-Npg-B5-Asp-3COOHF-Ala-Ala-Phe-Lys*3-PyrS2-3Thi-BztA-AsnR*3-NH2] | 3 to 10 | < 50 | 

Further lines, results first:

IC50 [1] [µM] | IC50 [2] [nM] | IC50 ([1]; absolute IC50) [µM] | SMILES
< 1.5 | < 50 |  | CC(=O)N1CCC[C@]12CC=CCCCC1(CCCC=CCCCOC(=O)N3CC[C@@]4(C3)NC(=O)[C@H](CCCCNC(=O)CC[C@@H](C(N)=O)NC(=O)[C@H](Cc3csc5ccccc35)NC(=O)[C@H](Cc3ccsc3)NC4=O)NC(=O)[C@H](Cc3ccccc3)NC(=O)[C@H](C)NC(=O)[C@H](C)NC(=O)[C@H](Cc3cccc(C(=O)O)c3)NC(=O)[C@H](CC(=O)O)NC1=O)NC(=O)[C@H](CC(C)(C)C)NC(=O)[C@H](CC(=O)O)NC2=O (relative stereo) [I-32, Ac-PL3-Asp-Npg-B5-Asp-3COOHF-Ala-Ala-Phe-Lys*3-PyrS2-3Thi-BztA-GlnR*3-NH2]
1.5 to 3 | < 50 |  | CC(=O)N1CCC[C@]12CC=CCCCC1(CCCC=CCCCOC(=O)N3CC[C@@]4(C3)NC(=O)[C@H](CCCCNC(=O)CC[C@@H](C(=O)N[C@@H](C)C(N)=O)NC(=O)[C@H](Cc3csc5ccccc35)NC(=O)[C@H](Cc3ccsc3)NC4=O)NC(=O)[C@H](Cc3ccccc3)NC(=O)[C@H](C)NC(=O)[C@H](C)NC(=O)[C@H](Cc3cccc(C(=O)O)c3)NC(=O)[C@H](CC(=O)O)NC1=O)NC(=O)[C@H](CC(C)(C)C)NC(=O)[C@H](CC(=O)O)NC2=O (relative stereo) [I-42, Ac-PL3-Asp-Npg-B5-Asp-3COOHF-Ala-Ala-Phe-Lys*3-PyrS2-3Thi-BztA-GlnR*3-Ala-NH2]
 |  | > 10 | CCCC[C@@H]1NC(=O)[C@H](C)NC(=O)C(C)(C)NC(=O)[C@H](Cc2cccc(C(=O)O)c2)NC(=O)[C@H](CC(=O)O)NC(=O)C2(CCCC=CCCCOC(=O)N3CC[C@@]4(C3)NC(=O)[C@H](CCCCNC(=O)CC[C@@H](C(=O)N[C@@H](C)C(N)=O)NC(=O)[C@H](Cc3ccc(Cl)c(Cl)c3)NC(=O)[C@H](Cc3ccccc3)NC4=O)NC1=O)CCCC=CC[C@]1(CCCN1C(C)=O)C(=O)N[C@@H](CC(=O)O)C(=O)N[C@@H](CC(C)(C)C)C(=O)N2 (single isomer, unassigned) [I-480, Ac-PL3-Asp-Npg-B5-Asp-3COOHF-Aib-Ala-nLeu-Lys*3-PyrS2-Phe-34ClF-GlnR*3-Ala-NH2]
 |  | > 10 | CC(=O)N1CCC[C@]12CC=CCCCC1(CCCC=CCCCOC(=O)N3CC[C@@]4(C3)NC(=O)[C@H](CCCCNC(=O)CC[C@@H](C(=O)N[C@@H](C)C(N)=O)NC(=O)[C@H](Cc3ccc5ccccc5c3)NC(=O)[C@H](Cc3ccccc3)NC4=O)NC(=O)[C@H](Cc3ccccc3)NC(=O)[C@H](C)NC(=O)C(C)(C)NC(=O)[C@H](Cc3cccc(C(=O)O)c3)NC(=O)[C@H](CC(=O)O)NC1=O)NC(=O)[C@H](CC(C)(C)C)NC(=O)[C@H](CC(=O)O)NC2=O (single isomer, unassigned) [I-484, Ac-PL3-Asp-Npg-B5-Asp-3COOHF-Aib-Ala-Phe-Lys*3-PyrS2-Phe-2NapA-GlnR*3-Ala-NH2]
 |  | 1.5 to 3 | CC(=O)N1CCC[C@]12CC=CCCCC1(CCCC=CCCCOC(=O)N3CC[C@@]4(C3)NC(=O)[C@H](CCCCNC(=O)CC[C@@H](C(=O)N[C@@H](CC(C)C)C(=O)N[C@@H](CCC(=O)O)C(=O)N[C@@H](C)C(N)=O)NC(=O)[C@H](Cc3csc5ccccc35)NC(=O)[C@H](Cc3ccsc3)NC4=O)NC(=O)[C@H](Cc3ccccc3)NC(=O)[C@H](C)NC(=O)C(C)(C)NC(=O)[C@H](Cc3cccc(C(=O)O)c3)NC(=O)[C@H](CC(=O)O)NC1=O)NC(=O)[C@H](CC(C)(C)C)NC(=O)[C@H](CC(=O)O)NC2=O (single isomer, unassigned) [I-495, Ac-PL3-Asp-Npg-B5-Asp-3COOHF-Aib-Ala-Phe-Lys*3-PyrS2-3Thi-BztA-GlnR*3-Leu-Glu-Ala-NH2]
 |  | 1.5 to 3 | CC(=O)N1CCC[C@]12CC=CCCCC1(CCCC=CCCCOC(=O)N3CC[C@@]4(C3)NC(=O)[C@H](CCCCNC(=O)CC[C@@H](C(=O)N[C@@H](CC(C)C)C(=O)N[C@@H](CO)C(=O)N[C@@H](C)C(N)=O)NC(=O)[C@H](Cc3csc5ccccc35)NC(=O)[C@H](Cc3ccsc3)NC4=O)NC(=O)[C@H](Cc3ccccc3)NC(=O)[C@H](C)NC(=O)C(C)(C)NC(=O)[C@H](Cc3cccc(C(=O)O)c3)NC(=O)[C@H](CC(=O)O)NC1=O)NC(=O)[C@H](CC(C)(C)C)NC(=O)[C@H](CC(=O)O)NC2=O (single isomer, unassigned) [I-497, Ac-PL3-Asp-Npg-B5-Asp-3COOHF-Aib-Ala-Phe-Lys*3-PyrS2-3Thi-BztA-GlnR*3-Leu-Ser-Ala-NH2]
 |  | 3 to 10 | CC(=O)N1CCC[C@]12CC=CCCCC1(CCCC=CCCCOC(=O)N3CC[C@@]4(C3)NC(=O)[C@H](CCCCNC(=O)CC[C@@H](C(=O)N[C@@H](CC(C)C)C(=O)N[C@H](C(=O)N[C@@H](C)C(N)=O)[C@@H](C)O)NC(=O)[C@H](Cc3csc5ccccc35)NC(=O)[C@H](Cc3ccsc3)NC4=O)NC(=O)[C@H](Cc3ccccc3)NC(=O)[C@H](C)NC(=O)C(C)(C)NC(=O)[C@H](Cc3cccc(C(=O)O)c3)NC(=O)[C@H](CC(=O)O)NC1=O)NC(=O)[C@H](CC(C)(C)C)NC(=O)[C@H](CC(=O)O)NC2=O (single isomer, unassigned) [I-499, Ac-PL3-Asp-Npg-B5-Asp-3COOHF-Aib-Ala-Phe-Lys*3-PyrS2-3Thi-BztA-GlnR*3-Leu-Thr-Ala-NH2]
 |  | 3 to 10 | CC(=O)N1CCC[C@]12CC=CCCCC1(CCCC=CCCCOC(=O)N3CC[C@@]4(C3)NC(=O)[C@H](CCCCNC(=O)CC[C@@H](C(=O)N[C@@H](CC(C)C)C(=O)N[C@H](C(=O)N[C@@H](C)C(N)=O)[C@H](C)O)NC(=O)[C@H](Cc3csc5ccccc35)NC(=O)[C@H](Cc3ccsc3)NC4=O)NC(=O)[C@H](Cc3ccccc3)NC(=O)[C@H](C)NC(=O)C(C)(C)NC(=O)[C@H](Cc3cccc(C(=O)O)c3)NC(=O)[C@H](CC(=O)O)NC1=O)NC(=O)[C@H](CC(C)(C)C)NC(=O)[C@H](CC(=O)O)NC2=O (single isomer, unassigned) [I-501, Ac-PL3-Asp-Npg-B5-Asp-3COOHF-Aib-Ala-Phe-Lys*3-PyrS2-3Thi-BztA-GlnR*3-Leu-aThr-Ala-NH2]
